Here are results for one compound from patent publication US8846687B2, “Pyrazine compounds as PI3 kinase inhibitors” (Novartis AG, priority 2008, dated 2014).

The chains behind the UniProt entries cited, without tags or fusion partners. Residues count along the entry.
UniProt P48736, 38-1102: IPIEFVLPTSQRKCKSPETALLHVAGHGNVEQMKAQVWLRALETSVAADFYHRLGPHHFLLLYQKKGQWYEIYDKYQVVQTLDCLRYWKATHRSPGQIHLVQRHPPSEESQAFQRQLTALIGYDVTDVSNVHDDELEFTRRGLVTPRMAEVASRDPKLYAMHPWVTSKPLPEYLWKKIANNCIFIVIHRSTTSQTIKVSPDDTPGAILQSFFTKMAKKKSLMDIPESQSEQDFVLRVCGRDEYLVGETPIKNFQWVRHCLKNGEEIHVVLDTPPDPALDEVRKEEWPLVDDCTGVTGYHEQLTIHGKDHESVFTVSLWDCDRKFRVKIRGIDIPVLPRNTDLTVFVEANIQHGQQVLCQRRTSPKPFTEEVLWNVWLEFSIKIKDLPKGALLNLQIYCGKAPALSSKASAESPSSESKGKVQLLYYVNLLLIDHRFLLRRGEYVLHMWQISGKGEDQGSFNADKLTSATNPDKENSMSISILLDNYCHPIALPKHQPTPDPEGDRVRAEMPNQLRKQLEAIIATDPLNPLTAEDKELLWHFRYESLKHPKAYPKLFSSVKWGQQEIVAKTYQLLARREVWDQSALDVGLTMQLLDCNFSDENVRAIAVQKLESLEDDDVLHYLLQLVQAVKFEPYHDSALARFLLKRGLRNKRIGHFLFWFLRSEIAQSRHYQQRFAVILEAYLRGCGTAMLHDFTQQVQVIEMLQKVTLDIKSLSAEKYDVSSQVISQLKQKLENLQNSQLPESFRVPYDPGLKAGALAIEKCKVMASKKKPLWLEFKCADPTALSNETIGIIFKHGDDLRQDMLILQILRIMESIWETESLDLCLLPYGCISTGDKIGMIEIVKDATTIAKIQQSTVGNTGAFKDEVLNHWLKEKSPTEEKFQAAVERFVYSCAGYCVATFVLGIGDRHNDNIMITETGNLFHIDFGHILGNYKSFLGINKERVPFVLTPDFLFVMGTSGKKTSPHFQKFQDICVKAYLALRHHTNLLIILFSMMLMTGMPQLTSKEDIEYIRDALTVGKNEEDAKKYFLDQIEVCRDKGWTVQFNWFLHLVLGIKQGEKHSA

The target of this test is recombinant GST-p110γ (human PI 3-Kγ) (Homo sapiens, UniProt P48736). In words: PI 3-kinase gamma in vitro kinase assay (Scintillation Proximity Assay). (SPA uses beads or plates that emit light when radiolabelled molecules are held near them.)

Broadly, the IC50 is the concentration needed to halve the response being measured. As to `CN1CCN(S(=O)(=O)c2cccc(-c3cnc(N)c(C(=O)c4cccnc4)c3)c2)CC1` [Example 92, {2-Amino-5-[3-(4-methyl-piperazine-1-sulfonyl)-phenyl]-pyridin-3-yl}-pyridin-2-yl-methanone], the IC50 was determined as 30 nM.
